Antibody variant affinities, Ab-91 heavy chain, assay 2

Binding partner: SARS-CoV-2 spike HR2 peptide, sequence PDVDLGDISGINAS.

Parent scFv Ab-91: VL joined to VH by the linker GGGGSGGGGSGGGGS. Changes lie in the heavy chain CDRs alone.
VL: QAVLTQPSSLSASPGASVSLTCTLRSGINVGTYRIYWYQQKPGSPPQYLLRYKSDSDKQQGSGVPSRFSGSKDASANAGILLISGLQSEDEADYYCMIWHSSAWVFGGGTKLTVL
VH: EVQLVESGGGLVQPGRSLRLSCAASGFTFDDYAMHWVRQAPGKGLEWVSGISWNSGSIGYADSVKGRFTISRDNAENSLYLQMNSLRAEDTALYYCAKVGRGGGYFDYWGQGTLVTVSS

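Variants in AAYL51 differ from the parent at up to three CDR positions; double and triple changes were sampled at random. AlphaSeq pools MATa yeast showing the antibodies with MATalpha yeast showing the peptide. Binding brings cells together so that they mate, and sequencing counts the barcode pairs among the diploids. Read counts were normalised to the haploid input and turned into Kd by a linear fit to BCL2-family pairs of known affinity, for each replicate. Each pool was mated in three replicate cultures.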

Substitutions are numbered in sequence along the VH above, starting at 1 (not Kabat). The read-out is the apparent dissociation constant on a log10 scale (nM): the lower, the stronger. The mean shown is taken over the replicates in which the pair was detected. A pair that was not seen in any replicate is written "no signal"; this usually means weak binding, but a binder can also be missed.

mean, log10 nM	seen in	changes
5.91	1 of 3	G26V/K65Y/Y108Q
1.50	3 of 3	G26K/D30K/D62Q
no signal	0 of 3	S52H/N54I/Y108E
3.63	1 of 3	T28F/D30W
0.82	3 of 3	F27G/T28C/V99E
no signal	0 of 3	G50N/S52R/K65V
5.94	2 of 3	G56H/K65Y/V99F
5.43	1 of 3	D30R/S55W/R101I
5.78	1 of 3	I51D/A61K/G104Y
5.24	2 of 3	I51M/D62A/D107H
4.66	2 of 3	S52Y/S63I/G100K
4.26	2 of 3	Y32F/S52C
no signal	0 of 3	D30A/G103H/G104A
3.61	1 of 3	K65F/V99W/G103E
no signal	0 of 3	F27I/I51W/K65E
4.70	2 of 3	M34N/N54D/G56L
no signal	0 of 3	G56F/G59I/V99M
5.00	1 of 3	G59C/V64M/G104M
no signal	0 of 3	Y32R/K65Q/G104F
no signal	0 of 3	D30W/Y60Q/D62E
5.04	1 of 3	I51H/I58K/G104Q
5.75	3 of 3	A33S/A61M/V64K
no signal	0 of 3	M34R/W53F/F106Y
no signal	0 of 3	G50P/Y60G/G102N
4.76	1 of 3	F29N/I51G/N54V
no signal	0 of 3	M34G/F106S/Y108G
no signal	0 of 3	G103V/G104Y
no signal	0 of 3	G50L/Y60K
no signal	0 of 3	S55G/S57N/R101S
5.45	1 of 3	G50F/S55F/G100P
3.99	1 of 3	T28G/G59Y/F106R
1.86	3 of 3	D30N/W53G/D62W
no signal	0 of 3	F29C/H35R/S55R
4.16	1 of 3	Y32H/W53F/D107W
3.39	1 of 3	S55V/G104V/Y105F
0.90	3 of 3	W53T/S63W
no signal	0 of 3	W53A/D62K/R101M
no signal	0 of 3	F27H/K65C/F106I
5.18	1 of 3	N54H/V99S/G100P
4.76	3 of 3	D30G/S52P/K65V
6.25	2 of 3	G104K/F106V
no signal	0 of 3	G26I/S55W/G103V
5.43	1 of 3	D31Y/I58L/F106I
5.36	3 of 3	G26R/S52M/F106S
no signal	0 of 3	W53D/V64G
no signal	0 of 3	G26M/A33F/S57D
3.07	1 of 3	F27Q/W53H
2.32	1 of 3	D31K/A61L/G102F
no signal	0 of 3	Y60K/V64K/V99P
no signal	0 of 3	I51T/A61D/D62N
no signal	0 of 3	M34I/N54V/S57Y
no signal	0 of 3	S57N/S63M/V99L
no signal	0 of 3	F27Q/Y60M/S63W
no signal	0 of 3	F29S/G50W/F106L
no signal	0 of 3	D31N/G59R/Y60K
1.40	3 of 3	D30N/M34F/G56Q

Excerpt, the first 5 entries:

changes	mean, log10 nM	seen in
G26V/K65Y/Y108Q	5.91	1 of 3
G26K/D30K/D62Q	1.50	3 of 3
S52H/N54I/Y108E	no signal	0 of 3
T28F/D30W	3.63	1 of 3
F27G/T28C/V99E	0.82	3 of 3

Parent in this assay: reference entry 1.86, copy in this library 0.88. Empty control strains, which show no peptide, gave a signal in 21% of pairings with library AAYL51; the median was 4.54 and 95% of these signals were weaker than 3.26. No background was subtracted.

Values reported by Engelhart et al. 2022, doi:10.1038/s41597-022-01779-4 (FLAb copy).